Results from US20060246555A1, “Degradation of cyclic nitramines” (published 2006).

Amino acid sequences for entries named in this document (tags omitted).
UniProt P36858, whole entry: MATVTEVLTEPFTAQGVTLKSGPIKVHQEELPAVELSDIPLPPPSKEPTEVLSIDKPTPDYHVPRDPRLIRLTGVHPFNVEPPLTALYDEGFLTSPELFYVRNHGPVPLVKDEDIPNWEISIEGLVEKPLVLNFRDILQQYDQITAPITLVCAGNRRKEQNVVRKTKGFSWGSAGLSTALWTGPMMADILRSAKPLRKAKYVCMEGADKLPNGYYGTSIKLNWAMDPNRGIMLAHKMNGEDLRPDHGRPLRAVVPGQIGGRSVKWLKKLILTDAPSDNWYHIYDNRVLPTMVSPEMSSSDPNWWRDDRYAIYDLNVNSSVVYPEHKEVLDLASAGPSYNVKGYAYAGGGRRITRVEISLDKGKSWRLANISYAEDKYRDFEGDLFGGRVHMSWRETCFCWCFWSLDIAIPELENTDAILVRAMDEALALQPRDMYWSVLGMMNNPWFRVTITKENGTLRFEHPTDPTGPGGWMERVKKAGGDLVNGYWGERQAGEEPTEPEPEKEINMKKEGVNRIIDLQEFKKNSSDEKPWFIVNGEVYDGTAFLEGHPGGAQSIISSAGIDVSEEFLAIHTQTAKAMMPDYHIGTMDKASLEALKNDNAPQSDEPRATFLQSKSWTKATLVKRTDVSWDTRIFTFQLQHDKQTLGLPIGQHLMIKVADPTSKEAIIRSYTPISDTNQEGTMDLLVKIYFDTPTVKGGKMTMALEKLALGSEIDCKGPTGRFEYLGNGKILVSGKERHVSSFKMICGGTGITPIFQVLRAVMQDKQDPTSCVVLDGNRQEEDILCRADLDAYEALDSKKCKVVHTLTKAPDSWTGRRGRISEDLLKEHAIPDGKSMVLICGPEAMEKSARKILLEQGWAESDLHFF

Tests used:
[1] = Decomposition of methylenedinitramine in water
[2] = biological target: Aspergillus niger NAD(P)H: Nitrate oxidoreductase (EC 1.6.6.2) (Aspergillus niger, UniProt P36858); assay: Nitrate reductase catalyzed RDX transformation
Protocol: Enzyme preparation and assays. Lyophilized enzyme is suspended in potassium phosphate buffer (50 mM) at pH 7.0 and washed thrice with 2.5 ml of buffer using Biomax-5K membrane centrifuge filter units (Sigma chemicals). The washed enzyme is then suspended in 0.5 ml of buffer and the protein concentration is measured by bicinchoninic acid (BCA) kit (Sigma chemicals) using bovine serum albumin as standard. The native enzyme activity is estimated spectrophotometrically at 340 nm as the rate of oxidation of NADPH in the presence of nitrate.
Nitrate reductase catalyzed RDX transformation is performed under anaerobic conditions in 6 ml glass vials containing one ml of reaction mixture sealed under an atmosphere of argon. […]; 2) RDX and enzyme in buffer (i.e. in the absence of NADPH); and, 3) RDX only in buffer. The samples from liquid and gas phases are withdrawn periodically to analyze for RDX and transformation products as described below. The enzymatic transformation rate of RDX is expressed as μmoles RDX transformed h^−1mg^−1protein.
To study the fate of formamide and hydrazine in the reaction mixture, each chemical (50 μM) is incubated separately with nitrate reductase and NADPH for one hour at pH 7.0 and 30° C. under the same conditions as described above. The residual compounds and their products are analyzed as stated below.
Analytical procedures. RDX is analyzed by a reversed phase-high pressure liquid chromatograph (RP-HPLC) connected to photodiode array (PDA) detector (λ254 nm). […] The MNX and methylenedinitramine are analyzed by a Micromass bench-top single quadrupole mass detector attached to a Hewlett Packard 1100 series HPLC system equipped with a photodiode array detector. […]
Hydrazine is analyzed by a HPLC system equipped with a Waters model 600 pump (Waters Associates, Milford, MA), a 717 plus autosampler, a Hamilton RPX-X200 analytical cation exchange column (250 mm×4.1 mm), a Waters post column reaction module with a Waters reagent manager pump, a Waters model 464 electrochemical detector with a gold-working electrode and a base resistant Ag/AgCl reference electrode. […]

[3] = system: Diaphorase (EC 1.8.1.4) from Clostridium kluyveri; assay: RDX biotransformation assay with diaphorase; conditions: for % Carbon recovery: of total carbon mass in the transformed RDX (78 μmole); for % Nitrogen recovery: of total nitrogen mass in the transformed RDX (78 μmole)
Protocol: Enzyme preparation. Diaphorase (BC 1.8.1.4) from Clostridium kluyveri was obtained from Sigma Chemicals, Canada, as a lyophilized powder. The enzyme was suspended in 50 mM potassium phosphate buffer (pH 7.0) and filtered through a Biomax-SK membrane (Sigma Chemicals) before resuspension in the same buffer. The protein concentration was measured by bicinchoninic acid (BCA) kit (Sigma Chemicals) using bovine serum albumin as standard. The native enzyme activity was estimated (as per company guidelines) spectrophotometrically at 340 nn as the rate of oxidation of NADH using 2,6-dichlorophenol-indophenol as the electron acceptor.
Biotransformation Assays. RDX biotransformation assays with diaphorase were performed in 6 ml glass vials under anaerobic conditions (with an atmosphere of argon) at pH 7.0 and 27° C. Each vial contained RDX (100 μM), NADH (150 μM) and 50 μl of the enzyme (0.5 native units) in a final volume of one ml potassium phosphate buffer (50 mM, pH 7.0). Three different controls were prepared. The first control contained RDX, NADH and buffer without enzyme; the second contained RDX, enzyme and buffer without NADH, and the third contained only RDX and buffer. The reaction time was one hour unless stated otherwise. Samples from the liquid and gas phases in the vials were withdrawn periodically to analyze for RDX and the transformed products as described below. RDX transformation activity of enzyme was expressed as μmoles of RDX transformed h^−1mg^−1 protein.
Inhibition with Oxygen. The effect of oxygen on RDX transformation activity of diaphorase was studied by performing the assays under aerobic and anaerobic conditions at pH 7.0 and 27° C. In another experiment, we determined the role of O2 transformation to superoxide radical anion (O2●^−) in the inhibition of RDX biotransformation. This was done by incubating the RDX with diaphorase in the presence of NADH, cytochrome c (100 μM and superoxide dismutase (SOD) (150 μg/ml) as described previously (Anusevicius et al., 1998). The absorption of reduced cytochrome c was monitored at 550 nm.
Preparation ofapoenzyme (Deflavo Enzyme) and its Reconstitution. The deflavo form of diaphorase was prepared as described before (Madigan et al., 1993 and Tedeschi et al., 1995) with some modifications. The holoenzyme was dialyzed for 48 hours at 4° C. against a dialysis solution composed of 100 mM potassium phosphate buffer (pH 7.0), EDTA (0.1 mM), glycerol (10% v/v) and KBr (3 M). The dialysis buffer was changed every 6 hours. The reconstitution of apoenzyme was carried out in ice cold potassium phosphate buffer (pH 7.0) in the presence of glycerol (10% v/v). FMN was added at variable concentrations (0-250 μM) to the apoenzyme preparation. The unbound FMN was removed by washing the enzyme with the same buffer using Biomax-5K membrane centrifuge filter units. […]
Analytical Procedures. RDX was analyzed by a reversed phase-high performance liquid chromatograph (RP-HPLC) connected to photodiode array (PDA) detector (λ254 nm). […] Methylenedinitramine was analyzed by a Micromass™ bench-top single quadrupole mass detector attached to a Hewlett Packard 1100 series HPLC system equipped with a photodiode array detector. […] Methylenedinitramine was detected as its deprotonated molecular mass ion [M−H] at 135 Da and confirmed by comparison with a reference standard (Halasz et al., 2002). […]

[4] = Photolysis of RDX in aqueous solution at 350 nm; conditions: RDX after 16 h of photolysis at 350 nm
Protocol: Irradiation Experiments. A Rayonet photoreactor RPR-100 fitted with a merry-go-round apparatus (Southern New England Co, Hamden, Conn.) equipped with sixteen 350 nm lamps were used as light sources. Photolysis was conducted in 20 ml tubes made of quartz. Each tube was charged with a 10 ml of an aqueous solution of RDX (10 mg/L) in the presence and absence of acetone (250 ppm, v/v). Photolysis was carried out in non degassed quartz tubes sealed with teflon coated mininert valves. Controls containing RDX were kept in the dark during the course of the experiment. The temperature of the reactor was maintained at 25° C. by maintaining the apparatus in a cold room at 10° C. during irradiation. Light intensities, λ 350=3.0 10^−6 einstein ml^−1s^−1 (RPR-350 nm lamp tubes emitting >90% of their energy at 350 nm) were measured using ferrioxalate actinometry.
Analytical Procedures. […] The product was detected as its protonated molecular mass ion [M+H].
The cyclic carbinol intermediate (I), its ring cleavage product (IV) and their subsequent hydrolyzed products including methylenedinitramine (VI) and 4-nitro-2,4-diaza-butanal (V) were analyzed as described previously using LC/MS (ES−). […]
Formic acid, NO2— and NO3— were measured using a Hp3D CE instrument model 1600 equipped with a diode array detector. […]

Methylenedinitramine
stability ([1]; pH 7.0, decomposes into N2O and HCHO): quite unstable | stability in water ([1]; pH 7.0 and 27° C.): unstable | Concentration of Reactants/metabolites ([2]; RDX transformation, after 150 minutes of reaction, pH 7.0, 30° C., anaerobic, NADPH): 10 µmol | % Carbon recovery ([2]; of total carbon mass in the transformed RDX (86 μmole)): 3.87% | % Nitrogen recovery ([2]; of total nitrogen mass in the transformed RDX (86 μmole)): 7.75% | Concentration of Reactants/metabolites ([3]; RDX transformation, pH 7.0, 27° C., anaerobic, NADH): 9.2 µmol | % Carbon recovery [3]: 4.0% | % Carbon recovery ([3]; listed as methylenedinitramine): 4% | % Nitrogen recovery [3]: 8.0% | % Nitrogen recovery ([3]; listed as methylenedinitramine): 8% | C-content % [4]: 0.9% | N-content % [4]: 1.9%
